Columns and labels:
Assay in all cases: apparent dissociation constant pKd app (kinobead competition) (-log10(M)); higher = stronger binding
TTK = biological target: T1, TTK (UniProt P33981)
T1 sequence (whole entry): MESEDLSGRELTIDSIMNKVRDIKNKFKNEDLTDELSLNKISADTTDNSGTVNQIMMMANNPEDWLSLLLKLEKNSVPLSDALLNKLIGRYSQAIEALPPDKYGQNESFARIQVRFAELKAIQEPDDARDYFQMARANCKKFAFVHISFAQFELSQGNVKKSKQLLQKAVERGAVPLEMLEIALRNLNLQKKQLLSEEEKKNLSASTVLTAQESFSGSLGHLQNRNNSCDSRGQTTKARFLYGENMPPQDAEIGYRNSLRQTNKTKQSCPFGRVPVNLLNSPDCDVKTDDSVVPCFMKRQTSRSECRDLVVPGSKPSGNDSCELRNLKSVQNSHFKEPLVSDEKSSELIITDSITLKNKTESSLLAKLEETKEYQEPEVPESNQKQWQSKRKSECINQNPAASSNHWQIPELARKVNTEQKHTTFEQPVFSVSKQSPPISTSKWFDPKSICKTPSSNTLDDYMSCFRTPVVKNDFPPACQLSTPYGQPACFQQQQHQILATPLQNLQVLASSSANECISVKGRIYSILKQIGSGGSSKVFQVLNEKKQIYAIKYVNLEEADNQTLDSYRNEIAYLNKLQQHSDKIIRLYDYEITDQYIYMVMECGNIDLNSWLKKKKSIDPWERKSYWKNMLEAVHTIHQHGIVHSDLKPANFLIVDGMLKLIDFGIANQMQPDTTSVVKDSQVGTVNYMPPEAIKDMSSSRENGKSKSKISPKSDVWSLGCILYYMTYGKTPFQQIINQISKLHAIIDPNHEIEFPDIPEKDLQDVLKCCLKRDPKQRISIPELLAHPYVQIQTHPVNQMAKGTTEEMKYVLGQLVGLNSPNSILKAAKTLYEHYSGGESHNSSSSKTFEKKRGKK

Amino acid sequences for entries named in this document (tags omitted). A change or cut given only in a name is not applied to a line headed by its entry.
UniProt O75460: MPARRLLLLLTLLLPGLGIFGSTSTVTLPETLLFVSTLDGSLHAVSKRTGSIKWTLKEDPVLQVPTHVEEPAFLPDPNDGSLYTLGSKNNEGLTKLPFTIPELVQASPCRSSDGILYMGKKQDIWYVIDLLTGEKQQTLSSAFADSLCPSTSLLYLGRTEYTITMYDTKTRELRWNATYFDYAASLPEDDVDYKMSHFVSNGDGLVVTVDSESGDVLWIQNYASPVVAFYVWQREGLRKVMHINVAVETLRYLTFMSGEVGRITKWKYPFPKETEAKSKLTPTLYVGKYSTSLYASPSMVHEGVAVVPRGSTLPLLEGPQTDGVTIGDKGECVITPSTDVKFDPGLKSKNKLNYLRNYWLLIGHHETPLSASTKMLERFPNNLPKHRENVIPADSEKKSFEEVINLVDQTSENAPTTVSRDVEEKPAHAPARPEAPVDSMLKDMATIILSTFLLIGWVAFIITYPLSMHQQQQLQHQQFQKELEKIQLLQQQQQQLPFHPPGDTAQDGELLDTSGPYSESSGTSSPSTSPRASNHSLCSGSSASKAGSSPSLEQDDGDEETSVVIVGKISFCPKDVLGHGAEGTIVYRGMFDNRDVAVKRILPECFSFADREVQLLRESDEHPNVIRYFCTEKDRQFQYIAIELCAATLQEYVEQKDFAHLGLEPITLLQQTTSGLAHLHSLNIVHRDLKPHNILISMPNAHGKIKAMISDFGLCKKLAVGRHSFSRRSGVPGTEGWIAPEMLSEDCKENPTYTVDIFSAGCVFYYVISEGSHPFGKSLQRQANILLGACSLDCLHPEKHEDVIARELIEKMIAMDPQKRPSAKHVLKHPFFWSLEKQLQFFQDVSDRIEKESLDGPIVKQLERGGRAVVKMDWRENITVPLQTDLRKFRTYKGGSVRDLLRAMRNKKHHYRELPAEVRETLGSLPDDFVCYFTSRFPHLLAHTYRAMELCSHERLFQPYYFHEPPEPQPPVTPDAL
UniProt Q00537: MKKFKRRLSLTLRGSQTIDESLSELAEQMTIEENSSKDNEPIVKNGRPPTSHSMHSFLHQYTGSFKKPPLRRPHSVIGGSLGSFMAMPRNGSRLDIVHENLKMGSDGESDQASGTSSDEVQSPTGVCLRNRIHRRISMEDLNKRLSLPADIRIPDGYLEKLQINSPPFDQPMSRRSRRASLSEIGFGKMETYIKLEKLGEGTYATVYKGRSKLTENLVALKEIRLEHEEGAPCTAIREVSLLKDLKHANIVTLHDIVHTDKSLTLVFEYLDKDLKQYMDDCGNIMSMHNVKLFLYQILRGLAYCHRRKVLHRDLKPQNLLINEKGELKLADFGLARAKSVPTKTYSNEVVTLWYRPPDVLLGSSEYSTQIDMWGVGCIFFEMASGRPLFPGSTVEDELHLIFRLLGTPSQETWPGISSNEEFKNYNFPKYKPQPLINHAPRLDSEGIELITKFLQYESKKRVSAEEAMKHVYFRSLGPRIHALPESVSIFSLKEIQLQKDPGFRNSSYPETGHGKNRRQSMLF
UniProt P12931, whole entry, looked up: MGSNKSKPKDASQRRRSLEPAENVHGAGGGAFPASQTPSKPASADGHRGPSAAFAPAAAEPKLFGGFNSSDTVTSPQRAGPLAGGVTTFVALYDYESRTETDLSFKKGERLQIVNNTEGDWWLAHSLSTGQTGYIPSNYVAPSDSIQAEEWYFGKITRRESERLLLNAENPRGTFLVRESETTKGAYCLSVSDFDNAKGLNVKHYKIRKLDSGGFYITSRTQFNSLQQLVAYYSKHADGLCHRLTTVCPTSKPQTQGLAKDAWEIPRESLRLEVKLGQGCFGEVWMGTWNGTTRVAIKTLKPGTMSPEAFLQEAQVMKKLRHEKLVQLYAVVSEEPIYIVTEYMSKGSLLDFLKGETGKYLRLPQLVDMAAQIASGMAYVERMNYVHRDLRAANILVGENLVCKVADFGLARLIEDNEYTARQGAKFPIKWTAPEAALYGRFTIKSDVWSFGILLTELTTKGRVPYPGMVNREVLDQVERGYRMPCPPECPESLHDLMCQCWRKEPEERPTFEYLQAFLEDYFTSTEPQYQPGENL

ERN1 = ERN1 (UniProt O75460)
PCTK2 = PCTK2 (UniProt Q00537)
SRC = SRC (UniProt P12931)
DDR2 = biological target: T2, DDR2 (UniProt Q16832)
T2 sequence (whole entry): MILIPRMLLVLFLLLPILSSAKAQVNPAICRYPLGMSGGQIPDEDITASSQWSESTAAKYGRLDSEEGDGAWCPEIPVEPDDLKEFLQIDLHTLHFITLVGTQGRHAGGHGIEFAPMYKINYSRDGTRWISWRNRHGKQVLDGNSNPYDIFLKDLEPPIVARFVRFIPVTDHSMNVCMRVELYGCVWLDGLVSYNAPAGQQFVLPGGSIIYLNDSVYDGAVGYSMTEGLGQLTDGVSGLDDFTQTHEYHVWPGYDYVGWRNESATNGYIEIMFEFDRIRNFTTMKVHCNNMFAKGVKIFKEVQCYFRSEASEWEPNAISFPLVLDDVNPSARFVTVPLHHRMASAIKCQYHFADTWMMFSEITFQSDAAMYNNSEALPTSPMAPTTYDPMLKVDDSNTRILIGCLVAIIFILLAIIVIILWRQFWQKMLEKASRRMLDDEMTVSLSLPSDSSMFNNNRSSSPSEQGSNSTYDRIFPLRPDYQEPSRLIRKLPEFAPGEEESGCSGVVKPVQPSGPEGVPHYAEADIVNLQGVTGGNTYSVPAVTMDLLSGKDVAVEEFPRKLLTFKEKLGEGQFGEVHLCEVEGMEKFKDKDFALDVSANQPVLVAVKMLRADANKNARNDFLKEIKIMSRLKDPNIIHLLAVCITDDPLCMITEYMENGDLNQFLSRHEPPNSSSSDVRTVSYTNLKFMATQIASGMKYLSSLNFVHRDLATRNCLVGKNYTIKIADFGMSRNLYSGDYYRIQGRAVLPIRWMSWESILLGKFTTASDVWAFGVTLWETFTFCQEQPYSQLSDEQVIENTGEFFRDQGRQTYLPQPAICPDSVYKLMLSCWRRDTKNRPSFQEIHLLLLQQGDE

STK3 = biological target: T3, STK3 (UniProt Q13188)
T3 sequence (whole entry): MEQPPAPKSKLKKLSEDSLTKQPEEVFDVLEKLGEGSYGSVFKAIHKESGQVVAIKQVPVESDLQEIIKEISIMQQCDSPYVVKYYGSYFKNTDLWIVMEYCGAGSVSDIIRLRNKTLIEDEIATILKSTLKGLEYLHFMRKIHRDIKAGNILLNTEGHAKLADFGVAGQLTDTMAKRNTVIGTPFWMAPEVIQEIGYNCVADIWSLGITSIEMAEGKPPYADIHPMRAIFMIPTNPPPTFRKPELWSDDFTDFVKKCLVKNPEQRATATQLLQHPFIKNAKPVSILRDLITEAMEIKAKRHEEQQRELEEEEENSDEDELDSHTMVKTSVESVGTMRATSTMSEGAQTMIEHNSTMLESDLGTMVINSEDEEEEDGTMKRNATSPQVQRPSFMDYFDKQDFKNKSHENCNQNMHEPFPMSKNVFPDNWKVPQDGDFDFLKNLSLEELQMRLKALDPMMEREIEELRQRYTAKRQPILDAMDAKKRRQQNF

apparent dissociation constant pKd app (-log10) (TTK) | apparent dissociation constant pKd app (-log10) (ERN1) | apparent dissociation constant pKd app (-log10) (PCTK2) | apparent dissociation constant pKd app (-log10) (SRC) | apparent dissociation constant pKd app (-log10) (DDR2) | apparent dissociation constant pKd app (-log10) (STK3) | Compound
< 4.5 | < 4.5 | < 4.6 | < 4.8 | < 4.6 | < 4.5 | O=C(c1cc(Cc2n[nH]c(=O)c3ccccc23)ccc1F)N1CCN(C(=O)C2CC2)CC1 [Olaparib]
< 4.5 | < 4.5 | < 4.6 | < 4.8 | < 4.6 | < 4.5 | NC(=O)c1cccc2cn(-c3ccc([C@@H]4CCCNC4)cc3)nc12 [Niraparib]
< 4.5 | < 4.5 | < 4.6 | < 4.8 | < 4.6 | < 4.5 | Cn1ncnc1[C@H]1c2n[nH]c(=O)c3cc(F)cc(c23)N[C@@H]1c1ccc(F)cc1 [Talazoparib]

Source: the supplement of paper PMC11403291
